By UniProt entry, the sequences of proteins in these tests, tags left out. Residues count along the entry.
UniProt P36894, 24-532: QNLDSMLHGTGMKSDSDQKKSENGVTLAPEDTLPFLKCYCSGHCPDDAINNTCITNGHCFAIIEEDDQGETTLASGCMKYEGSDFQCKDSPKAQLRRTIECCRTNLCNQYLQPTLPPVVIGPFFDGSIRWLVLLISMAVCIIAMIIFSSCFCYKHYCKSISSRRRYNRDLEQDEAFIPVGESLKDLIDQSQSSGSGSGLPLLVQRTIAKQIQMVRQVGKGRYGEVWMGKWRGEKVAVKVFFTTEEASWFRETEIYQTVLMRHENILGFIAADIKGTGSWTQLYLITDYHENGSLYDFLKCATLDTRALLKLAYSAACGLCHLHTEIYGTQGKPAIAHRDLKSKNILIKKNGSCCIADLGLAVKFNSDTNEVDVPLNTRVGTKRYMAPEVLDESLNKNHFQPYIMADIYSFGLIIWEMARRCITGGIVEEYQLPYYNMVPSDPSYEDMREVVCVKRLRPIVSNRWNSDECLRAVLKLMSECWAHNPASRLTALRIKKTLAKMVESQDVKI

According to patent US10030004B2, “Compounds and methods of use” (Medivation Technologies LLC, priority 2014, dated 2018):

Biological target: ALK3 (BMPR1A) (Homo sapiens (Human), UniProt P36894)
Assay: In vitro kinase assay, ALK3
Type: biochemical
Settings: read-out: Inhibition of ALK3 IC50

In the case of `COC(C)(C)c1cnc(-c2cc(Cl)ccc2F)cc1Nc1ccncc1C(=O)NCC(C)O` (single isomer, unassigned) [17a, 4-[[2-(5-chloro-2-fluoro-phenyl)-5-(1-methoxy-1-methyl-ethyl)-4-pyridyl]amino]-N-(2-hydroxypropyl)pyridine-3-carboxamide], the IC50 is reported as > 1000 µM.
